Experimental data: US20190184007A1, “AVOIDING NARCOLEPSY RISK IN INFLUENZA VACCINES” (priority 2013, published 2019)

Columns and labels:
HLA DQA1*0101:DQB1*0501 = test: REVEAL class II binding assay (cell-free)
[1] = target: HLA DQA1*0102:DQB1*0602, P01920; test: REVEAL class II binding assay (cell-free)

| Binder | REVEAL 0 hrs (% of positive control signal) (HLA DQA1*0101:DQB1*0501) | REVEAL 24 hours (% of positive control signal) (HLA DQA1*0101:DQB1*0501) | Stability index (HLA DQA1*0101:DQB1*0501) | REVEAL 0 hrs (% of positive control signal) [1] | REVEAL 24 hours (% of positive control signal) [1] | Stability index [1] |
| --- | --- | --- | --- | --- | --- | --- |
| MNLPSTKVSWAAVTL (modifications not checked) [Peptide #10 (Orexin DQB1*0602 fragment)] | 0.2 | 0.1 | 0.1 | 1.7 | 0.3 | 0.2 |
| GAGNHAAGILTLGKR (modifications not checked) [Peptide #14 (Orexin fragment HCRT56-68)] | 0 | 0 | 0 | 0.1 | 0.1 | 0.1 |
| ASGNHAAGILTMGRR (modifications not checked) [Peptide #15 (Orexin fragment HCRT87-99)] | 0.1 | 0.1 | 0.1 | 0.2 | 0.2 | 0.3 |
| MNLPSIKVSWAAVTL (modifications not checked) [Peptide #11 (Mutant of #10, Thr→Ile)] | 18 | 2.1 | 1.4 | 47.5 | 20.8 | 9.6 |
| MNLPSMKVSWAAVTL (modifications not checked) [Peptide #12 (Mutant of #10, Thr→Met)] | 2.5 | 0.8 | 0.4 | 12.3 | 3.7 | 1.7 |
